This assay concerns the target purified human recombinant PITPNM3 (Homo sapiens, UniProt Q9BZ71). The assay is described as follows: biolayer interferometry (Fortebio Octet). To be noted: immobilised PITPNM3. In general terms: Biolayer interferometry detects binding as a change in optical thickness at a sensor tip.

Sequences of proteins named here, by UniProt entry; tags and fusion partners are left off. Residues count along the entry.
UniProt Q9BZ71, 615-974 limits assumed: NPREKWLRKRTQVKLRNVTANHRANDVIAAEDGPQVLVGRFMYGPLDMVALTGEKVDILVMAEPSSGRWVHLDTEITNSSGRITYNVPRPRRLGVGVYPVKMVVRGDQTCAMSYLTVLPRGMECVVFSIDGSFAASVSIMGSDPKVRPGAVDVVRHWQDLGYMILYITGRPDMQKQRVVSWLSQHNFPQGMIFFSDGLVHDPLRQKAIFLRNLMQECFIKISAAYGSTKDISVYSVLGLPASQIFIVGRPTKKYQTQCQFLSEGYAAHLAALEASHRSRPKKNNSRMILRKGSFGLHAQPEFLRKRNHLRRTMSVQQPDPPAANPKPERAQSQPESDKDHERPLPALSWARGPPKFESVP

Kd data for 1 compound are collected here from article PMC9762305.

By Kd is commonly meant the equilibrium constant for the complex coming apart. On to `COc1ccc(C(=O)CC2(O)C(=O)N(CN3CCN(Cc4ccc5c(c4)OCO5)CC3)c3ccccc32)cc1` (stereo not shown), for which the dissociation constant Kd is 500 nM.
